Experimental data as given in ChEMBL document CHEMBL1135592, “Structural determinants of A(3) adenosine receptor activation: nucleoside ligands at the agonist/antagonist boundary” (J Med Chem, 2002).

Amino acid sequences for entries named in this document (tags omitted).
UniProt P0DMS8, whole entry: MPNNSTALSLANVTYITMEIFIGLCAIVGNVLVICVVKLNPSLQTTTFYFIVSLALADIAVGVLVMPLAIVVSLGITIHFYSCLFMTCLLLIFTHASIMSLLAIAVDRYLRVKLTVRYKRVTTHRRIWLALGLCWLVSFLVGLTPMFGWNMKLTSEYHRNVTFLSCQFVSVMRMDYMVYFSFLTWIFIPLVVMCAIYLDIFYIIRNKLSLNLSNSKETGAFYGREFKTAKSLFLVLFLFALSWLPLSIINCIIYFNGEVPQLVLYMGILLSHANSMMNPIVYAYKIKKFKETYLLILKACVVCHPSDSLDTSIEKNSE

What was measured:
[1] = molecular target: T1, Adenosine receptor A3 (Homo sapiens, UniProt P0DMS8); experiment: Affinity for human Adenosine A3 receptor expressed in CHO cell; assay type: cell-based
[2] = molecular target: T1, Adenosine receptor A3; experiment: Effect on forskolin-stimulated cyclic AMP production in intact chinese hamster ovary (CHO) cell expressing the human Adenosine A3 receptor; assay type: functional

Row | SMILES | Ki [1] [nM] | EC50 [2] [nM]
1 | C[C@H](Cc1ccccc1)Nc1ncnc2c1ncn2[C@@H]1O[C@H](CO)[C@@H](O)[C@H]1O [(R)-PIA] | 8.7 | 27
2 | C[C@@H](Cc1ccccc1)Nc1ncnc2c1ncn2[C@@H]1O[C@H](CO)[C@@H](O)[C@H]1O [(S)-PIA] | 68 | 210
